Data taken from ChEMBL document CHEMBL1156061, “Design and synthesis of substituted nicotinamides as inhibitors of soluble epoxide hydrolase” (Bioorg Med Chem Lett, 2009).

Sequences of proteins named here, by UniProt entry; tags and fusion partners are left off. A change or cut given only in a name is not applied to a line headed by its entry.
UniProt P80299: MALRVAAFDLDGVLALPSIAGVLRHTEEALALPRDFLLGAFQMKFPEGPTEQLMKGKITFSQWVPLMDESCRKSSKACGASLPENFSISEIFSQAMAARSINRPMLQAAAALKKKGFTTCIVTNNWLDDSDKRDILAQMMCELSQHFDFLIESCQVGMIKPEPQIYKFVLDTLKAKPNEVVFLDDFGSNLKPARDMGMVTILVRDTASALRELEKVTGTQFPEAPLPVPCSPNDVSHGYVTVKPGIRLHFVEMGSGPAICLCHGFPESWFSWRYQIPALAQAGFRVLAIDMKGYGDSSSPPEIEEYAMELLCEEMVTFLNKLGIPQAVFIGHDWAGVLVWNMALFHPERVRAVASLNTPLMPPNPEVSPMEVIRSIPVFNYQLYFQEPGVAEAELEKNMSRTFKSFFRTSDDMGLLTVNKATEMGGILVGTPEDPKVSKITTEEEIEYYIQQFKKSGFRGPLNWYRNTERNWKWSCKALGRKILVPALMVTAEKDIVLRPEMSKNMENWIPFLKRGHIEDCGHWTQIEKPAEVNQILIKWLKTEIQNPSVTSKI

Biological target: Bifunctional epoxide hydrolase 2 (Rattus norvegicus, UniProt P80299)
Assay: Inhibition of rat sEH

IC50: 22 nM
SMILES: O=C(NCc1ccccc1Cl)c1ccc(OCCC(F)(F)F)nc1
